# Data as given in patent US20250228895A1, “COMPOUNDS TO INHIBIT YTHDF2, T HELPER CELLS LACKING EXPRESSION OF YTHDF2, AND METHODS TO TREAT CANCER” (City of Hope, priority 2024, published 2025).
# Test: Body weight and HE staining of organs in DF-A7 treated MC38-bearing mice
# Conditions: 2.5 mg/kg i.p. days 1 and 8; vs vehicle group
smiles,measurement,value
O=C1c2c(O)ccc(O)c2C(=O)c2c(NCCNCCO)ccc(NCCNCCO)c21 [DF-A7],"morphology of the heart, liver, spleen, lung, and kidney (HE staining)",no differences
